For test [1], the target named is T1, CENP-HI^Δ56KM (human, UniProt Q9H3R5 1-247; Q92674 57-756; Q9BS16 1-269; Q9NSP4 1-180).
T1 sequence (looked up) 1: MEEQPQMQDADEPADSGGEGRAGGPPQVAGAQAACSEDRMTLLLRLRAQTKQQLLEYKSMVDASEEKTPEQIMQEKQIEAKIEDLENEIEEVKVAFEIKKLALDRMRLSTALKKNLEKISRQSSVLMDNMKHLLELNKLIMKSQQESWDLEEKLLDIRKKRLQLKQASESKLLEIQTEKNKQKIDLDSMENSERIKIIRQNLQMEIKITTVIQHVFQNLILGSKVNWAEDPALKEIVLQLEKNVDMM
T1 sequence (looked up) 2: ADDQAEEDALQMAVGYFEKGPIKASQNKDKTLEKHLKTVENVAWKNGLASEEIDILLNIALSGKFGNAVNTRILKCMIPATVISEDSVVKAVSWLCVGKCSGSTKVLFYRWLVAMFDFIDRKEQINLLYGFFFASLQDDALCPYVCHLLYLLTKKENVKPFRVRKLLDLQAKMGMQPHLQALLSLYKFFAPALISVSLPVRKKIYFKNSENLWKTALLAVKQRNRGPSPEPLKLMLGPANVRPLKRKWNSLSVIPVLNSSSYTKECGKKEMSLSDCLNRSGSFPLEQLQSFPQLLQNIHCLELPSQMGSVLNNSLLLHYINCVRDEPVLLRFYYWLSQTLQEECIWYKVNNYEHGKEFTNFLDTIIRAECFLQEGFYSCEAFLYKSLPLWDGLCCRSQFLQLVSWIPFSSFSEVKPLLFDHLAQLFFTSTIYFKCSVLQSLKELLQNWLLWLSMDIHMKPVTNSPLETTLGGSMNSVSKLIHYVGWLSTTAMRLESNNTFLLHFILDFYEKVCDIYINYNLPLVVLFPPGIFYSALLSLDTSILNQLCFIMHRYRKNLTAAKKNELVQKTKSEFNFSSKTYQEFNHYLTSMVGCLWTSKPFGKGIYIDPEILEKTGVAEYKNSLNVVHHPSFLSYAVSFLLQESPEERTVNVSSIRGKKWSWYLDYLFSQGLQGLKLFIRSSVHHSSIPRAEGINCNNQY
T1 sequence (looked up) 3: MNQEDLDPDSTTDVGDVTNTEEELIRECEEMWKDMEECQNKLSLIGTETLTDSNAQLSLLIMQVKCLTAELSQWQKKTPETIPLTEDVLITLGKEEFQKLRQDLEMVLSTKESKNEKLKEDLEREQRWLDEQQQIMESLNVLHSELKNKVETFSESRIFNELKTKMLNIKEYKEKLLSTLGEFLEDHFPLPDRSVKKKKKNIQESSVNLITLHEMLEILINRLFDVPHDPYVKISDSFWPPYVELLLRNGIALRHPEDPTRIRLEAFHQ
T1 sequence (looked up) 4: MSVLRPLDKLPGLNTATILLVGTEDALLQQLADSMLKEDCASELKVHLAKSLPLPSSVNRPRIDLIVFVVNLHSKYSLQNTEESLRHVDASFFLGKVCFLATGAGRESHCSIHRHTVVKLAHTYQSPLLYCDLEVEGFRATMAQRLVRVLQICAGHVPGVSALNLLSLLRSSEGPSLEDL
In words: SEC. (In general: SEC sorts molecules by how far they enter the pores of the column.)

For test [2], the target named is CENP-C^[…]HI^Δ56KMLN (human). The test is described as follows: SEC.
Test [3] concerns the target T2, CENP-QU (human, UniProt Q7L2Z9 1-268; Q71F23 1-418).
T2 sequence (looked up) 1: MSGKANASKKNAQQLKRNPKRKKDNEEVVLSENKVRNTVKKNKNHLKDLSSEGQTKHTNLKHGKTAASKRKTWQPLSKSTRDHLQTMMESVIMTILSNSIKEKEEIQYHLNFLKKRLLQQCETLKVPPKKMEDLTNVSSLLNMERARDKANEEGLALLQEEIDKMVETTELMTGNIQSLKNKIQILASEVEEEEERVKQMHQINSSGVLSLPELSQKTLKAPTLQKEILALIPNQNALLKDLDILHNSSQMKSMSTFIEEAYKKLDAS
T2 sequence (looked up) 2: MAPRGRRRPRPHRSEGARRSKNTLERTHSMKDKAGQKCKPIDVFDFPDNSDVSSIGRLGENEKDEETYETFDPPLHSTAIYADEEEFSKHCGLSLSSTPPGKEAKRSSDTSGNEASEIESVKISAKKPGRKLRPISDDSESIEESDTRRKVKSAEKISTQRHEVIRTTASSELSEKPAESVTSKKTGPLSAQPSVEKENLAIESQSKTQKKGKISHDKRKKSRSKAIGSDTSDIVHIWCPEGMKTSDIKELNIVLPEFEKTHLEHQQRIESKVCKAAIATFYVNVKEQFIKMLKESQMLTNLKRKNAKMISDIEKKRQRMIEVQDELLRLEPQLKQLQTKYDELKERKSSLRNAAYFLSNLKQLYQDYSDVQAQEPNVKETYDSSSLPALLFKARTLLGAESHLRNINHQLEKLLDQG
In words: AUC.

The target in test [4] is T3, CENP-P (human, UniProt Q6IPU0 1-288).
T3 sequence (looked up): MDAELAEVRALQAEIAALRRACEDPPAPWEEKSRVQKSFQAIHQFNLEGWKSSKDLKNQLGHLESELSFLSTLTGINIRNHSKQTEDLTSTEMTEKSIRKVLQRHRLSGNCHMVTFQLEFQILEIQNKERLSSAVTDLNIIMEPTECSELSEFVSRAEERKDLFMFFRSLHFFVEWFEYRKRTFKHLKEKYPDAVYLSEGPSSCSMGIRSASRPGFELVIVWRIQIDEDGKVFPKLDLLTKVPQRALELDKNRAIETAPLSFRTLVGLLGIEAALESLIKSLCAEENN
In words: AUC.

B1: CENP-LN (complex)
chain 1: MDSYSAPESTPSASSRPEDYFIGATPLQKRLESVRKQSSFILTPPRRKIPQCSQLQEDVDPQKVAFLLHKQWTLYSLTPLYKFSYSNLKEYSRLLNAFIVAEKQKGLAVEVGEDFNIKVIFSTLLGMKGTQRDPEAFLVQIVSKSQLPSENREGKVLWTGWFCCVFGDSLLETVSEDFTCLPLFLANGAESNTAIIGTWFQKTFDCYFSPLAINAFNLSWMAAMWTACKMDHYVATTEFLWSVPCSPQSLDISFAIHPEDAKALWDSVHKTPGEVTQEEVDLFMDCLYSHFHRHFKIHLSATRLVRVSTSVASAHTDGKIKILCHKYLIGVLAYLTELAIFQIE
chain 2: not shown
Consider B1, for which the binding result in test [1] was “binds”.

B2: CENP-OPQUR (complex, human)
chain 1: MEQANPLRPDGESKGGVLAHLERLETQVSRSRKQSEELQSVQAQEGALGTKIHKLRRLRDELRAVVRHRRASVKACIANVEPNQTVEINEQEALEEKLENVKAILQAYHFTGLSGKLTSRGVCVCISTAFEGNLLDSYFVDLVIQKPLRIHHHSVPVFIPLEEIAAKYLQTNIQHFLFSLCEYLNAYSGRKYQADRLQSDFAALLTGPLQRNPLCNLLSFTYKLDPGGQSFPFCARLLYKDLTATLPTDVTVTCQGVEVLSTSWEEQRASHETLFCTKPLHQVFASFTRKGEKLDMSLVS
chain 2: T3 sequence (looked up)
chain 3: T2 sequence (looked up) 1
chain 4: T2 sequence (looked up) 2
chain 5: MPVKRSLKLDGLLEENSFDPSKITRKKSVITYSPTTGTCQMSLFASPTSSEEQKHRNGLSNEKRKKLNHPSLTESKESTTKDNDEFMMLLSKVEKLSEEIMEIMQNLSSIQALEGSRELENLIGISCASHFLKREMQKTKELMTKVNKQKLFEKSTGLPHKASRHLDSYEFLKAILN
With B2, in test [2], the binding result was “binds”.

B3: CENP-OP (complex, human)
chain 1: B2 chain 1
chain 2: T3 sequence (looked up)
As a reminder, the stoichiometry N is a count of units in the complex or per binding partner. For the molecule B3, in test [3], the “stoichiometry N” value came to 1.

B4: CENP-O (natural protein, human, UniProt Q9BU64 1-300, looked up)
chain: B2 chain 1
In the case of B4, in test [4], the “stoichiometry N” value was 1.

For the origin of these results see paper PMC6162344 (Molecular Cell, 2018).
